Target: 5-hydroxytryptamine receptor 2A (Rattus norvegicus, UniProt P14842)

Amino acid sequences for entries named in this document (tags omitted).
UniProt P14842, whole entry: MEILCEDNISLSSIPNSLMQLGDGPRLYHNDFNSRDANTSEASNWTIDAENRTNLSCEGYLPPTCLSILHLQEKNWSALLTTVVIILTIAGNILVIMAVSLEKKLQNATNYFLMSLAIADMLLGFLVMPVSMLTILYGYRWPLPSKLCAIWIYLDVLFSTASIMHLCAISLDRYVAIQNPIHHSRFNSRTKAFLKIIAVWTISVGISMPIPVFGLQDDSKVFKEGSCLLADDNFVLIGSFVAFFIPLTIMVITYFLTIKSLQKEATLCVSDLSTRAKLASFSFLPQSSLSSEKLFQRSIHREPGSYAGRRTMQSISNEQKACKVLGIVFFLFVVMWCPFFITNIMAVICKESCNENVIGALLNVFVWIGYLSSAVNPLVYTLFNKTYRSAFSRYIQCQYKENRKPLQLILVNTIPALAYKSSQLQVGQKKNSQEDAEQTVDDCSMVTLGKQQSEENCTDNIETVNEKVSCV

SMILES | Ki
CCN(CC)C(=O)[C@@H]1C=C2c3cccc4[nH]cc(c34)C[C@H]2N(C)C1 [(4R,7R)-N,N-diethyl-6-methyl-6,11-diazatetracyclo[7.6.1.0^{2,7}.0^{12,16}]hexadeca-1(16),2,9,12,14-pentaene-4-carboxamide] | 3.5 nM
O=C(CCCN1CCC2(CC1)C(=O)NCN2c1ccccc1)c1ccc(F)cc1 [8-[4-(4-fluorophenyl)-4-oxidanylidene-butyl]-1-phenyl-1,3,8-triazaspiro[4.5]decan-4-one] | 1.6 nM
